Data as given in patent US20070191336A1 (priority 2003, published 2007).

Chains of the proteins cited; added tags and fusions are not shown.
UniProt Q16539, whole entry: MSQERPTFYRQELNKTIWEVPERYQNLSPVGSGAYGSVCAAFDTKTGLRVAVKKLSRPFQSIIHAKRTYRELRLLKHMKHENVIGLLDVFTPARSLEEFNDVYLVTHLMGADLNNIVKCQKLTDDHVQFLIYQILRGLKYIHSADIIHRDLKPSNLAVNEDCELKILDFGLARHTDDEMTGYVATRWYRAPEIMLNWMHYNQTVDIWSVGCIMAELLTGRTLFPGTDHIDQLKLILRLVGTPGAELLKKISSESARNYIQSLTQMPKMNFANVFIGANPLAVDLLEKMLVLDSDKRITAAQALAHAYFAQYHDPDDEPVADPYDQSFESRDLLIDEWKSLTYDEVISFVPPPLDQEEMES

What follows are molecules tested against p38 MAP kinase (unphosphorylated p38-alpha kinase) (Homo sapiens, UniProt Q16539) (assay: P38 MAP kinase binding assay (fluorescence competition with SKF 86002 probe)). Conditions: IC50 values obtained at 2 hours reaction time; 1 μM SKF 86002, 80 nM p38 kinase.
Method: The reaction was initiated by addition of the enzyme. […] By comparison of rfu (relative fluorescence unit) values with that of a control (in the absence of an inhibitor), the percentage of inhibition at each concentration of the inhibitor was calculated. IC50 value for the inhibitor was calculated from the % inhibition values obtained at a range of concentrations of the inhibitor using Prism. When time-dependent inhibition was assessed, the plate was read at multiple reaction times such as 0.5, 1, 2, 3, 4 and 6 hours. The IC50 values were calculated at the each time point. An inhibition was assigned as time-dependent if the IC50 values decrease with the reaction time (more than two-fold in four hours).

pIC50 | Structure (SMILES)
6.53 | Cn1[nH]c(=O)n(Cc2cccc(-n3nc(C(C)(C)C)cc3NC(=O)Nc3cccc4ccccc34)c2)c1=O [Example 1, 1-(3-tert-butyl-1-{3-[(1-methyl-3,5-dioxo-1,2,4-triazolidin-4-yl)methyl]phenyl}-1H-pyrazol-5-yl)-3-(naphthalene-1-yl)urea]

These molecules were tested against T1, phospho p-38 alpha kinase (Homo sapiens, UniProt Q16539) (assay: P-38 alpha kinase assay (spectrophotometric, pyruvate kinase/lactate dehydrogenase coupled)). Conditions: Table 2; rates from […] to 2 h time frame.
T1 construct: purchased Panvera
Type: biochemical
Method: In this assay, the oxidation of NADH was continuously measured spectrophometrically. […] The reaction was initiated by adding ATP. The absorption at 340 nm was monitored continuously for up to 4 hours at 30° C. on Polarstar Optima plate reader (BMG). The kinase activity (reaction rate) was calculated from the slope at the time frame from 1.5 h to 2 h.
For inhibition determinations, test compounds were incubated with the reaction mixture for ˜5 min before adding ATP to start the reaction. […] IC50 values were calculated from a series of % inhibition values determined at a range of concentrations of each inhibitor using Prism to process the data and fit inhibition curves. Generally, the rates obtained at the time frame of 1.5 h to 2 h were used for these calculations.

pIC50 | Structure (SMILES)
6.60 | CC(C)(C)c1cc(NC(=O)Nc2ccc(Cl)cc2)n(-c2cccc(CCC(=O)O)c2)n1 [Example 30, 3-(3-{3-tert-butyl-5-[3-(4-chlorophenyl)ureido]-1H-pyrazol-1-yl)phenyl)propionic acid]
6.72 | CC(C)(C)c1cc(NC(=O)Nc2ccc(Cl)cc2)n(-c2cccc(CC(N)=O)c2)n1 [Example 26, 1-{3-tert-butyl-1-[3-(carbamoylmethyl)phenyl)-1H-pyrazol-5-yl}-3-(4-chlorophenyl)urea]
7.25 | CC(C)(C)c1cc(NC(=O)Nc2cccc3ccccc23)n(-c2ccc(CCC(=O)O)cc2)n1 [Example 31, 3-{4-[3-tert-butyl-5-(3-(naphthalene-1-yl)ureido]-1H-pyrazol-1-yl}phenyl)propanonic acid]
7.17 | Cn1[nH]c(=O)n(Cc2cccc(-n3nc(C(C)(C)C)cc3NC(=O)Nc3cccc4ccccc34)c2)c1=O [Example 1, 1-(3-tert-butyl-1-{3-[(1-methyl-3,5-dioxo-1,2,4-triazolidin-4-yl)methyl]phenyl}-1H-pyrazol-5-yl)-3-(naphthalene-1-yl)urea]
6.54 | Cn1[nH]c(=O)n(Cc2cccc(-n3nc(C(C)(C)C)cc3NC(=O)Nc3ccc(Cl)cc3)c2)c1=O [Example 2, 1-(3-tert-butyl-1-{3-[(1-methyl-3,5-dioxo-1,2,4-triazolidin-4-yl)methyl]phenyl}-1H-pyrazol-5-yl)-3-(4-chlorophenyl)urea]
6.51 | CC(C)(C)c1cc(NC(=O)Nc2ccc(Cl)cc2)n(-c2ccc(CCC(=O)O)cc2)n1 [Example 32, 3-{4-[3-tert-butyl-5-(3-(4-chlorophenyl)ureido]-1H-pyrazol-1-yl}phenyl)propanonic acid]
7.96 | CC(C)(C)c1cc(NC(=O)Nc2cccc3ccccc23)n(-c2cccc(CCC(=O)O)c2)n1 [Example 29]

Same assay, conditions: Table 3; rates from […] to 2 h time frame

pIC50 | Structure (SMILES)
8.10 | CC(C)(C)c1cc(NC(=O)Nc2cccc(Cl)c2Cl)n(-c2cccc(CC(N)=O)c2)n1 [Example 411, 1-{1-[3-(2-amino-2-oxoethyl)phenyl]-3-t-butyl-1H-pyrazol-5-yl}-3-(2,3-dichlorophenyl)urea]
7.00 | CC1C(=O)NS(=O)(=O)N1Cc1cccc(-n2nc(C(C)(C)C)cc2NC(=O)Nc2cccc3ccccc23)c1 (stereo in doubt) [Example 161, 1-{5-t-butyl-2-[3-((R)-3-methyl-1,1,4-trioxo-1λ^6-[1,2,5]thiadiazolidin-2-ylmethyl)-phenyl]-2H-pyrazol-3-yl}-3-naphthalen-1-yl-urea]
7.36 | CC1C(=O)NS(=O)(=O)N1Cc1cccc(-n2nc(C(C)(C)C)cc2NC(=O)Nc2cccc3ccccc23)c1 (stereo in doubt) [Example 160, 1-{5-t-butyl-2-[3-((S)-3-methyl-1,1,4-trioxo-1λ^6-[1,2,5]thiadiazolidin-2-ylmethyl)-phenyl]-2H-pyrazol-3-yl}-3-naphthalen-1-yl-urea]

Same assay, conditions: read-out: % inhibition @ concentration, Table 2; at 1.0 uM

Structure (SMILES) | inhibition at 1 µM
CC(C)(C)c1cc(NC(=O)Nc2ccc(Cl)cc2)n(-c2ccc(O)cc2)n1 [Example 54, 1-{3-tert-butyl-1-(4-hydroxyphenyl)-1H-pyrazol-5-yl}-3-(4-chlorophenyl)urea] | 68%

pIC50: −log10 of the molar value.
